Measured values: US20240139211A1, “METHODS AND COMPOSITIONS FOR TREATING AMYOTROPHIC LATERAL SCLEROSIS” (Amylyx Pharmaceuticals, Inc., priority 2022, published 2024)
pEC50: −log10 of the molar value. Read-outs that look alike come from different tables or passages of the source.

Chains of the proteins cited; added tags and fusions are not shown. Lines headed by an entry give the natural chain unless they say otherwise; changes in a name come on top.
UniProt Q9NPD5: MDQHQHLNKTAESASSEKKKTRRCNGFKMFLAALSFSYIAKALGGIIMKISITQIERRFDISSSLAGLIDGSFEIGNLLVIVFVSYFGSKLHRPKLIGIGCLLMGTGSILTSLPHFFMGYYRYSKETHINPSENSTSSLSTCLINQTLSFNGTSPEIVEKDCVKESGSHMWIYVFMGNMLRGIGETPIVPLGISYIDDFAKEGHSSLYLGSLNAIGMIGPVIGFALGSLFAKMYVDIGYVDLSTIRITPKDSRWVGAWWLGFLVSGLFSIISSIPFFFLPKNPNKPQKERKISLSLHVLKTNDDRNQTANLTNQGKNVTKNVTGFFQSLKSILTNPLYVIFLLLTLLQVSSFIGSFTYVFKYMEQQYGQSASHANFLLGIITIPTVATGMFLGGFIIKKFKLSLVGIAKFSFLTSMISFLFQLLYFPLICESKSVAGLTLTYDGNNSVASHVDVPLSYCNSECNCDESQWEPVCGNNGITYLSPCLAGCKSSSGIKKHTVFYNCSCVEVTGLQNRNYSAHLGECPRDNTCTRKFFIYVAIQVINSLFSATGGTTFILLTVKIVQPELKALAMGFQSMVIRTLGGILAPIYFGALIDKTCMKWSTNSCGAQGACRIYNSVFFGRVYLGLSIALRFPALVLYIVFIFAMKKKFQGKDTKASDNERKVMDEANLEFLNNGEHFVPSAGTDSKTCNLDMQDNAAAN
UniProt O95342, whole entry: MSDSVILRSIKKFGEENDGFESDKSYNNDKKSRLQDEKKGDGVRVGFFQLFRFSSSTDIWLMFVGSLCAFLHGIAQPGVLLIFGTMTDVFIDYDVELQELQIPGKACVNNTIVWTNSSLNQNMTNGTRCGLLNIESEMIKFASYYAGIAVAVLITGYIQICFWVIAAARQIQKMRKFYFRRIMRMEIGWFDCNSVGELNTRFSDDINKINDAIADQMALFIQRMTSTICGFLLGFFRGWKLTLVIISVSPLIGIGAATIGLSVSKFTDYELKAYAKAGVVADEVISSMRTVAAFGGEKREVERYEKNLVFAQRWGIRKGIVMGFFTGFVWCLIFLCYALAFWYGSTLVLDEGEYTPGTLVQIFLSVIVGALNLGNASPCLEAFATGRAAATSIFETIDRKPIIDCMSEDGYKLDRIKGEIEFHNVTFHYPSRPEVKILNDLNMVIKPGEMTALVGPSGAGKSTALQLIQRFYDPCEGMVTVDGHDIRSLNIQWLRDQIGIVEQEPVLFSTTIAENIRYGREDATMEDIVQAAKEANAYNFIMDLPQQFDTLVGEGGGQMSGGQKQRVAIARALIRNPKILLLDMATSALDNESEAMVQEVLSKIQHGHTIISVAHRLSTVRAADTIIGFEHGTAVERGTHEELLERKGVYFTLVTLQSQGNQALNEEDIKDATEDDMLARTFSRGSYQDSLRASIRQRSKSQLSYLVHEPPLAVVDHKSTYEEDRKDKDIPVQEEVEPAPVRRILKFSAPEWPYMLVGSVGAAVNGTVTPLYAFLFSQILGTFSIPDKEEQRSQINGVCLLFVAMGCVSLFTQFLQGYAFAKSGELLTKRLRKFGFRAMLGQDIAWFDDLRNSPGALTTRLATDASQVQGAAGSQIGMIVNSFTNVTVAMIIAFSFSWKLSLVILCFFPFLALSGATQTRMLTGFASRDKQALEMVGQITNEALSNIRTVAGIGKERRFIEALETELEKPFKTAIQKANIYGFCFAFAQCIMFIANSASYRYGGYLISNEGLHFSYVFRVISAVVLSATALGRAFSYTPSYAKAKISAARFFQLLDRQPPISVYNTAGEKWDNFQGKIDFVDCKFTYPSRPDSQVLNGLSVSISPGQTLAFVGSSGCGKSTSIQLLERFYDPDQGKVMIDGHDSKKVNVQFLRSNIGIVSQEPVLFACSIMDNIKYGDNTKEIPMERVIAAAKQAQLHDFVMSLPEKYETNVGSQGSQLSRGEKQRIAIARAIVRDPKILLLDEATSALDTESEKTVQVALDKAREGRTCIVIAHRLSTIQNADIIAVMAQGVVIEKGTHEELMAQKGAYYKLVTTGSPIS

Key:
OATP1B3 = OATP1B3 (Homo sapiens, UniProt Q9NPD5); assay: Substrate of OATP1B3, uptake in HEK293 cells; conditions: probe substrate 1 μM
BSEP [1] = biological target: T1, BSEP (Homo sapiens, UniProt O95342); assay: Substrate of BSEP
BSEP [2] = biological target: T1, BSEP; assay: Inhibitor of BSEP
CYP1A2 mRNA = assay: CYP1A2 gene expression induction in hepatocyte cultures
CYP2B6 mRNA = assay: CYP2B6 gene expression induction in hepatocyte cultures
CYP3A4 mRNA = assay: CYP3A4 gene expression induction in hepatocyte cultures; conditions: for pEC50: read-out: EC50, CYP3A4 gene expression
CYP1A2 = CYP1A2 enzyme activity induction in hepatocyte cultures
CYP3A4/5 = CYP3A4/5 enzyme activity induction in hepatocyte cultures
[3] = two concentrations per test article

## 3H-cholecystokinin octapeptide
OATP1B3
  Fold uptake over the vector control by OATP1B3: 11.1 fold

## ursodeoxycholic acid
Caco-2 cells; 1 μM
  Efflux ratio: 1.08
Caco-2 cells; 10 μM
  Efflux ratio: 1.21
Caco-2 cells; 1 and 10 μM
  Efflux ratios: < 2
BSEP [1]; 1 and 10 μM
  Substrate of BSEP: not a substrate
BSEP [1]; test article 1 and 10 μM
  Substrate of BSEP: No
BSEP [2]; read-out: Estimated IC50, BSEP, estimated from two concentrations
  potency estimated from few doses: < 500 µM
BSEP [2]; [3]
  Inhibition of BSEP: inhibited
  Inhibitor of BSEP: Yes
CYP1A2 mRNA; Donor 1, 72±2 h, eight concentrations
  Maximum fold induction of CYP1A2 gene expression: 8.33 fold
CYP1A2 mRNA; Donor 2
  Maximum fold induction of CYP1A2 gene expression: 7.96 fold
CYP1A2 mRNA; Donor 3
  Maximum fold induction of CYP1A2 gene expression: 7.66 fold
CYP2B6 mRNA; Donor 1
  Maximum fold induction of CYP2B6 gene expression: 8.59 fold
CYP2B6 mRNA; Donor 3
  Maximum fold induction of CYP2B6 gene expression: 15.7 fold
CYP3A4 mRNA; Donor 1
  Emax, CYP3A4 gene expression: 23.6 fold
  Maximum fold induction of CYP3A4 gene expression: 18.6 fold
  Relative induction score, CYP3A4: 0.714
  pEC50: 3.82
CYP3A4 mRNA; Donor 2
  Emax, CYP3A4 gene expression: 34.3 fold
  Maximum fold induction of CYP3A4 gene expression: 34.0 fold
  Relative induction score, CYP3A4: 1.85
  pEC50: 4.08
CYP3A4 mRNA; Donor 3
  Emax, CYP3A4 gene expression: 11.5 fold
  Maximum fold induction of CYP3A4 gene expression: 11.5 fold
  pEC50: 4.20
CYP3A4 mRNA; gene expression and enzyme activity, three donors
  Inducer of CYP3A4 (conclusion): moderate inducer of CYP3A4
CYP1A2; Donor 1, 72±2 h, three concentrations
  Maximum fold induction of CYP1A2 activity: 4.99 fold
CYP1A2; Donor 2
  Maximum fold induction of CYP1A2 activity: 2.40 fold
CYP1A2; Donor 3
  Maximum fold induction of CYP1A2 activity: 4.53 fold
CYP3A4/5; Donor 1
  Maximum fold induction of CYP3A4/5 activity: 3.74 fold
CYP3A4/5; Donor 2
  Maximum fold induction of CYP3A4/5 activity: 2.75 fold
CYP3A4/5; Donor 3
  Maximum fold induction of CYP3A4/5 activity: 4.06 fold
